# Only a part is listed here, and it is no random draw. Calls of active or inactive are those of the source.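 Rule for the calls: active = inhibition above about 50% (limit read from the data); inconclusive = inhibition over screen mean plus 3 SD, below that limit; inactive = the rest.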
# The chains behind the UniProt entries cited, without tags or fusion partners. Where a name states a change or a piece, a line headed by the entry shows the natural chain unless it says otherwise.
# UniProt P28562: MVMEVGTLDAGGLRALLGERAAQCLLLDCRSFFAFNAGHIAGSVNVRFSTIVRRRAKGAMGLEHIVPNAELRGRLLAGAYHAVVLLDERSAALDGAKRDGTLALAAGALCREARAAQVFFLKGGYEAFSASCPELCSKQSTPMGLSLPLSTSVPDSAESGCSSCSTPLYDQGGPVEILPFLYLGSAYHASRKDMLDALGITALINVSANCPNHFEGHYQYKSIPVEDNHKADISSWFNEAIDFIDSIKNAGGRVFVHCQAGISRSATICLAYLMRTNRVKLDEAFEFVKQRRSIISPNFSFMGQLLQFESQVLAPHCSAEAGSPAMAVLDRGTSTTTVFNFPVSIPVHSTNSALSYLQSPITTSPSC
# Molecular target: Dual specificity protein phosphatase 1 (Homo sapiens) (UniProt P28562)
# Assay: MKP-1 phosphatase inhibitors, primary screen, biochemical, in vitro (AID 374);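 note: 0% = DMSO max control wells and 100% = wells with enzyme stopped by NaOH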
# Details: recombinant MKP-1, OMFP hydrolysis fluorescence; stronger effect = higher value;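 compounds tested at a single concentration somewhere between 10 and 100 µM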
row,SMILES,inhibition
1,Cc1c2non([O-])c-2c(C)[n+](=O)[n+]1[O-],inactive: 13.4%
2,CCc1nc2c(n1)c1c(non1O)c1c2no[n+]1[O-],inactive: 1.41%
3,c1nnnn1CCn1cnnn1,inactive: -3.16%
4,O=P(Nc1nccs1)(c1ccccc1)c1ccccc1,inactive: -1.61%
5,O=C(OC1CN2CCC1CC2)c1cccc(Cl)c1 (stereo not given),inactive: 0.96%
6,COC(=O)c1cc2c(s1)N=C(c1ccccc1)N(C)P2(=O)N1CCOCC1 (stereo not given),inactive: -1.59%
7,O=P1(Nc2nc3ccc(Cl)cc3s2)COc2ccccc2O1 (stereo not given),inactive: -11.7%
8,Cc1cccc(OCC(=O)OC2CN3CCC2CC3)c1 (stereo not given),inactive: -22.9%
9,CCOP1(=S)c2c(C)nn(CCC#N)c2N=C(c2ccc(F)cc2)N1C (stereo not given),inactive: 24.4%
10,O=P(Nc1nccs1)(c1ccccc1)c1nc2ccccc2s1 (stereo not given),inactive: 25.1%
11,CCOP1(=S)c2c(C)nn(CCC#N)c2N=C(c2ccccc2F)N1C (stereo not given),inactive: -1.95%
12,O=P1(Nc2ccc(Br)cn2)COc2ccccc2OC1,inactive: -16.5%
13,Cc1ccc(OCC(=O)OC2CN3CCC2CC3)cc1 (stereo not given),inactive: -21.8%
14,O=P1(Nc2ncccn2)COc2ccccc2OC1,inactive: -10.4%
15,Cc1nn(-c2ccccc2)c2c1P(=O)(N1CCOCC1)N(C)C(c1ccccc1)=N2 (stereo not given),inactive: 15.8%
16,Clc1n[nH]nc1-c1nn[nH][15n]1,inactive: -3.8%
17,O=P1(Nc2ccccn2)COc2ccccc2OC1,inactive: -11.6%
18,O=C(COc1ccccc1)OC1CN2CCC1CC2 (stereo not given),inactive: 11.8%
19,COP1(=S)c2c(C)nn(CCC#N)c2N=C(c2ccc(F)cc2)N1C (stereo not given),inactive: 18.4%
20,O=C(OC1CN2CCC1CC2)C12CC3CC(CC(C3)C1)C2 (stereo not given),inactive: 17.3%

# Source: PubChem BioAssay AID374 (University of Pittsburgh Molecular Library Screening Center, 2006)
